Results as given in patent publication US20220281918A1, “PBP BINDING BICYCLIC PEPTIDE LIGANDS” (BicycleTx Limited, priority 2019, published 2022).

T1: S. pneumoniae PBP1a (Streptococcus pneumoniae, UniProt Q8DR59)
T1 sequence (Q8DR59 1-719): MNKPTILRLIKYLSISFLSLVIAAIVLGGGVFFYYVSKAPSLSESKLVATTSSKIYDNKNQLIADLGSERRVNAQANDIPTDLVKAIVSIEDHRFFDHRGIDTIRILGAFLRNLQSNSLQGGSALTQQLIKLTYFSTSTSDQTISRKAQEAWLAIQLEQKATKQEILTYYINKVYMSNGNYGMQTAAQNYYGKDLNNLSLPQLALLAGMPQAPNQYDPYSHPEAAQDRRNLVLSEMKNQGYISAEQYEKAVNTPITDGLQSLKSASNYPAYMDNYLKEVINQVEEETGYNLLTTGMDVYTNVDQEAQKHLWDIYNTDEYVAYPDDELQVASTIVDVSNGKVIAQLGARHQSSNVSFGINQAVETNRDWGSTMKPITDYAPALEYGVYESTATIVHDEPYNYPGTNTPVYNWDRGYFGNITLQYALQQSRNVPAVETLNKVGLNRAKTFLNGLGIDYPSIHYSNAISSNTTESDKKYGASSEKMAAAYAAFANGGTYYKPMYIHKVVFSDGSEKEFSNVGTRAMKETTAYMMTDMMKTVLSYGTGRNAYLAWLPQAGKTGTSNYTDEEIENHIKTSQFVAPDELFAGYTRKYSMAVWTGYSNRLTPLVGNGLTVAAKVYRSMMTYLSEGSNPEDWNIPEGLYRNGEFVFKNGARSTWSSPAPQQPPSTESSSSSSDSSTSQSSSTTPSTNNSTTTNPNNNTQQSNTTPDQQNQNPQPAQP

T2: S. pneumoniae PBP1a (S. pneumoniae, UniProt Q04707 37-719, limits assumed)
T2 sequence (looked up): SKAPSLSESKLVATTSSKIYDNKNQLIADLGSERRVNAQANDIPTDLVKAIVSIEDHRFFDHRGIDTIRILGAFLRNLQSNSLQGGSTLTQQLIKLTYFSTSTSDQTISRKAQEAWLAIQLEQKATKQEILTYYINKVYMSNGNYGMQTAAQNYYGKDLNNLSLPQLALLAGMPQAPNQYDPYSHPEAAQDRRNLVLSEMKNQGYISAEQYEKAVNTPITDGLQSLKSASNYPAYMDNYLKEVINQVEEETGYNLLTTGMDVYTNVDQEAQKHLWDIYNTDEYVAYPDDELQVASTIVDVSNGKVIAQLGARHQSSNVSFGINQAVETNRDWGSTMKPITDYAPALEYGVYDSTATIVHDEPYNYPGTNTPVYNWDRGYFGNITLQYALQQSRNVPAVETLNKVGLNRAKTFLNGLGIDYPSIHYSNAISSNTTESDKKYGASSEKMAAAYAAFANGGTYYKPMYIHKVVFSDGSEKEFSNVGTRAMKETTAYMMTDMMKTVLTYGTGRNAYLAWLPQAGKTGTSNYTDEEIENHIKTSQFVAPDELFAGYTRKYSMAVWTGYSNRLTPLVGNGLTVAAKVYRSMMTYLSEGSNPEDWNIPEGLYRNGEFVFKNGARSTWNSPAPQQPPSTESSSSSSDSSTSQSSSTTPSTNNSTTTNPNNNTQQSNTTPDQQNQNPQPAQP

T3: E. coli PBP1b (E. coli, UniProt P02919 88-844, limits assumed)
T3 sequence (looked up): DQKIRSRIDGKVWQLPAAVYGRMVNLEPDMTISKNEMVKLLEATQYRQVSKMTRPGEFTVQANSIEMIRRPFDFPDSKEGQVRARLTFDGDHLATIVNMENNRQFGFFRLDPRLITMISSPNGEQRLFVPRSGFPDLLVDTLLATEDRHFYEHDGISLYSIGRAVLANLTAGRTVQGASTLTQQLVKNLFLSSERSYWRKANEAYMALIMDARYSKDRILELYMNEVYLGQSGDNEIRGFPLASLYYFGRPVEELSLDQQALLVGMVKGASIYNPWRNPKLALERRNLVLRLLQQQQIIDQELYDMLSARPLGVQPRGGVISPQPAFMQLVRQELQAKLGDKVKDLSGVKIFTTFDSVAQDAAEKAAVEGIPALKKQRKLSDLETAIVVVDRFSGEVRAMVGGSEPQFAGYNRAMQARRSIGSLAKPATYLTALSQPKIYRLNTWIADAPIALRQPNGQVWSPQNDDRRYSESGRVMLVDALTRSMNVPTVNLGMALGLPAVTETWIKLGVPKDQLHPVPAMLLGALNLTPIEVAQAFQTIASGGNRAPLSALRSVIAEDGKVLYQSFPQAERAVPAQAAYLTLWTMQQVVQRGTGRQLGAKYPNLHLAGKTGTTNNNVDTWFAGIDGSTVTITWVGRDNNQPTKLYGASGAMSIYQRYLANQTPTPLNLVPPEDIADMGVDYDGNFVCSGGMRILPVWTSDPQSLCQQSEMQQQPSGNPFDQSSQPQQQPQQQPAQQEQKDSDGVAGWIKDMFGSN


Each molecule was assayed against T1, S. pneumoniae PBP1a (assay: Fluorescence polarisation direct binding assay, PBP 1a). Settings: PBP Tested 1a; fluorescein-labelled peptide (Sar6-Lysine linker, C-terminus).
Description: Fluorescence polarisation was carried out using fluorescein-labelled peptides with unmodified PBP protein and measured using a PHERAstar FS by BMG Labtech fitted with a FP 485 520 520 optic module.
Fluorescent peptides at 10 mM in DMSO were diluted to 2.5 nM in binding buffer (10 mM HEPES, pH8, 300 mM NaCl, 2% glycerol). A two-fold dilution series of PBP protein was then prepared across 12 wells in binding buffer, with the highest concentration being 21 μM, and the lowest concentration being 17 nM.
10 μl diluted fluorescent peptide (2.5 nM) was added into 12 wells of a 384-Well NBS™ Low Volume Microplate (Fisher Scientific). 10 μl PBP dilution series was then added to the wells containing the fluorescent peptide, and 5 μl binding buffer was added to bring the total volume to 25 μl and the final concentration of peptide tracer to 1 nM. A control well lacking PBP protein was prepared with a final peptide concentration of 1 nM to a final volume of 25 μl in binding buffer. Fluorescence polarisation was measured every 5 minutes for a period of one hour at room temperature. The gain and focal height were optimised using the control well lacking protein. Wells were excited at 485 nm, and emission detection was set at 520 nm.
Data were analysed in GraphPad software to derive values for the dissociation constant. Experiments were repeated at least three times.
Certain peptide ligands of the invention (having a fluorescein appended to the C-terminus with a Sar6-Lysine linker) were tested in the above mentioned binding assay and the results are shown in Table 1 for binding to the indicated PBP: […]

| Molecule | Kd [µM] |
| --- | --- |
| A-(SEQ ID NO: 2)-A [BCY9378] | 0.08 |
| A-(SEQ ID NO: 3)-A [BCY9381] | 3.95 |
| A-(SEQ ID NO: 4)-A [BCY9382] | 2.37 |
| A-(SEQ ID NO: 8)-A [BCY9386] | 0.87 |
| A-(SEQ ID NO: 12)-A [BCY9391] | 0.45 |

These molecules were tested against T2, S. pneumoniae PBP1a (assay: fluorescence polarisation direct binding; fluorescein-labelled peptide, PBP titrated). Settings: not given.

| Molecule | Kd [µM] |
| --- | --- |
| ACHPRHQEGYCMPCA (Ci, Cii and Ciii cyclised with TATA scaffold; fluorescein appended to the C-terminus with a Sar6-Lysine linker, Bicyclic peptide) [BCY9381 with fluorescein appended to the C-terminus with a Sar6-Lysine linker] | 3.95 |
| ACKPSLSCQHLPRALCA (Ci, Cii and Ciii cyclised with TATA scaffold; fluorescein appended to the C-terminus with a Sar6-Lysine linker, Bicyclic peptide) [BCY9385 with fluorescein appended to the C-terminus with a Sar6-Lysine linker] | 1.02 |
| ACPFTGPCRPHYICA (Ci, Cii and Ciii cyclised with TATA scaffold; fluorescein appended to the C-terminus with a Sar6-Lysine linker, Bicyclic peptide) [BCY9386 with fluorescein appended to the C-terminus with a Sar6-Lysine linker] | 0.87 |
| ACYTSCPEHHVFACA (Ci, Cii and Ciii cyclised with TATA scaffold; fluorescein appended to the C-terminus with a Sar6-Lysine linker, Bicyclic peptide) [BCY9387 with fluorescein appended to the C-terminus with a Sar6-Lysine linker] | 3.14 |
| ACYNHKWGAMCTHPCA (Ci, Cii and Ciii cyclised with TATA scaffold; fluorescein appended to the C-terminus with a Sar6-Lysine linker, Bicyclic peptide) [BCY9382 with fluorescein appended to the C-terminus with a Sar6-Lysine linker] | 2.37 |
| ACDIYRECHYTSWSVCA (Ci, Cii and Ciii cyclised with TATA scaffold; fluorescein appended to the C-terminus with a Sar6-Lysine linker, Bicyclic peptide) [BCY9384 with fluorescein appended to the C-terminus with a Sar6-Lysine linker] | 1.32 |
| ACNPRCHPVYTSFFCA (Ci, Cii and Ciii cyclised with TATA scaffold; fluorescein appended to the C-terminus with a Sar6-Lysine linker, Bicyclic peptide) [BCY9389 with fluorescein appended to the C-terminus with a Sar6-Lysine linker] | 0.79 |
| ACRFSSCPPYHVCA (Ci, Cii and Ciii cyclised with TATA scaffold; fluorescein appended to the C-terminus with a Sar6-Lysine linker, Bicyclic peptide) [BCY9377 with fluorescein appended to the C-terminus with a Sar6-Lysine linker] | 0.31 |
| ACGAPCRPHYVPWFCA (Ci, Cii and Ciii cyclised with TATA scaffold; fluorescein appended to the C-terminus with a Sar6-Lysine linker, Bicyclic peptide) [BCY9391 with fluorescein appended to the C-terminus with a Sar6-Lysine linker] | 0.45 |
| ACDNCWERQWYACA (Ci, Cii and Ciii cyclised with TATA scaffold; fluorescein appended to the C-terminus with a Sar6-Lysine linker, Bicyclic peptide) [BCY9388 with fluorescein appended to the C-terminus with a Sar6-Lysine linker] | 0.57 |

Each molecule was assayed against T3, E. coli PBP1b in the same assay as above. Settings: not given.

| Molecule | Kd [µM] |
| --- | --- |
| ACWGSLRCPIHYSCA (Ci, Cii and Ciii cyclised with TATA scaffold; fluorescein appended to the C-terminus with a Sar6-Lysine linker, Bicyclic peptide) [BCY14618 with fluorescein appended to the C-terminus with a Sar6-Lysine linker] | 0.142 |
| ACSATWGSRSCPVKFCA (Ci, Cii and Ciii cyclised with TATA scaffold; fluorescein appended to the C-terminus with a Sar6-Lysine linker, Bicyclic peptide) [BCY9233 with fluorescein appended to the C-terminus with a Sar6-Lysine linker] | 0.37 |
| ACPNACWTVHYSGYQCA (Ci, Cii and Ciii cyclised with TATA scaffold; fluorescein appended to the C-terminus with a Sar6-Lysine linker, Bicyclic peptide) [BCY9237 with fluorescein appended to the C-terminus with a Sar6-Lysine linker] | 0.36 |
| ACWGSKSCPITWKCA (Ci, Cii and Ciii cyclised with TATA scaffold; fluorescein appended to the C-terminus with a Sar6-Lysine linker, Bicyclic peptide) [BCY14641 with fluorescein appended to the C-terminus with a Sar6-Lysine linker] | 0.163 |
| ACSNPTCVYTPTNLFCA (Ci, Cii and Ciii cyclised with TATA scaffold; fluorescein appended to the C-terminus with a Sar6-Lysine linker, Bicyclic peptide) [BCY9227 with fluorescein appended to the C-terminus with a Sar6-Lysine linker] | 2.15 |
| ACNTCIYASENLLCA (Ci, Cii and Ciii cyclised with TATA scaffold; fluorescein appended to the C-terminus with a Sar6-Lysine linker, Bicyclic peptide) [BCY9229 with fluorescein appended to the C-terminus with a Sar6-Lysine linker] | 2.24 |
| ACWGTSACPVTHECA (Ci, Cii and Ciii cyclised with TATA scaffold; fluorescein appended to the C-terminus with a Sar6-Lysine linker, Bicyclic peptide) [BCY14381 with fluorescein appended to the C-terminus with a Sar6-Lysine linker] | 1.39 |
| ACHEFSLDCILFGTSCA (Ci, Cii and Ciii cyclised with TATA scaffold; fluorescein appended to the C-terminus with a Sar6-Lysine linker, Bicyclic peptide) [BCY9238 with fluorescein appended to the C-terminus with a Sar6-Lysine linker] | 1.35 |
| ACWGSRQCPISWTCA (Ci, Cii and Ciii cyclised with TATA scaffold; fluorescein appended to the C-terminus with a Sar6-Lysine linker, Bicyclic peptide) [BCY14629 with fluorescein appended to the C-terminus with a Sar6-Lysine linker] | 0.059 |
| ACWGTQKCPVGYWCA (Ci, Cii and Ciii cyclised with TATA scaffold; fluorescein appended to the C-terminus with a Sar6-Lysine linker, Bicyclic peptide) [BCY14631 with fluorescein appended to the C-terminus with a Sar6-Lysine linker] | 0.062 |
| ACWGSLRCPIKWDCA (Ci, Cii and Ciii cyclised with TATA scaffold; fluorescein appended to the C-terminus with a Sar6-Lysine linker, Bicyclic peptide) [BCY14621 with fluorescein appended to the C-terminus with a Sar6-Lysine linker] | 0.239 |
| ACWGSWRCPIVHSCA (Ci, Cii and Ciii cyclised with TATA scaffold; fluorescein appended to the C-terminus with a Sar6-Lysine linker, Bicyclic peptide) [BCY14613 with fluorescein appended to the C-terminus with a Sar6-Lysine linker] | 0.131 |
| ACWGSLRCPIVHSCA (Ci, Cii and Ciii cyclised with TATA scaffold; fluorescein appended to the C-terminus with a Sar6-Lysine linker, Bicyclic peptide) [BCY13797 with fluorescein appended to the C-terminus with a Sar6-Lysine linker] | 0.095 |
| ACVYAPENLLCGSCA (Ci, Cii and Ciii cyclised with TATA scaffold; fluorescein appended to the C-terminus with a Sar6-Lysine linker, Bicyclic peptide) [BCY9226 with fluorescein appended to the C-terminus with a Sar6-Lysine linker] | 3.75 |
| ACWGSKACPITWHCA (Ci, Cii and Ciii cyclised with TATA scaffold; fluorescein appended to the C-terminus with a Sar6-Lysine linker, Bicyclic peptide) [BCY14627 with fluorescein appended to the C-terminus with a Sar6-Lysine linker] | 0.158 |
| ACWGSLRCPITAHCA (Ci, Cii and Ciii cyclised with TATA scaffold; fluorescein appended to the C-terminus with a Sar6-Lysine linker, Bicyclic peptide) [BCY14619 with fluorescein appended to the C-terminus with a Sar6-Lysine linker] | 0.049 |

Each molecule was assayed against T2, S. pneumoniae PBP1a (assay: fluorescence polarisation competition; unlabelled peptide against the competitor fluorescein-labelled BCY9378 tracer, PBP at 800 nM). Settings: not given.

| Molecule | Ki [µM] |
| --- | --- |
| ACPVGCRPHYVHWSCA (Ci, Cii and Ciii cyclised with TATA scaffold, Bicyclic peptide) [BCY10027 (unlabelled, unmodified peptide)] | 0.11 |
| ACPYTTCPPYHACA (Ci, Cii and Ciii cyclised with TATA scaffold, Bicyclic peptide) [BCY10024 (unlabelled, unmodified peptide)] | 0.196 |
| ACPYTSCPPYTHCA (Ci, Cii and Ciii cyclised with TATA scaffold, Bicyclic peptide) [BCY10025 (unlabelled, unmodified peptide)] | 0.0667 |
| ACRYTSCPPYTVCA (Ci, Cii and Ciii cyclised with TATA scaffold, Bicyclic peptide) [BCY10026 (unlabelled, unmodified peptide)] | 0.555 |
| ACVFTTCPPYTVCA (Ci, Cii and Ciii cyclised with TATA scaffold, Bicyclic peptide) [BCY10022 (unlabelled, unmodified peptide)] | 1.17 |
| ACPPVCRPHYVHWMCA (Ci, Cii and Ciii cyclised with TATA scaffold, Bicyclic peptide) [BCY10028 (unlabelled, unmodified peptide)] | 0.614 |
| ACTYTTCPPFTICA (Ci, Cii and Ciii cyclised with TATA scaffold, Bicyclic peptide) [BCY10020 (unlabelled, unmodified peptide)] | 0.602 |
